The text below walks through data of patent publication US20220033460A1, “IDENTIFICATION AND USE OF T CELL EPITOPES IN DESIGNING DIAGNOSTIC AND THERAPEUTIC APPROACHES FOR COVID-19” (priority 2020, published 2022).

For this test, the target named is T1, I-Ab (mouse), P14434.
T1 chain 1: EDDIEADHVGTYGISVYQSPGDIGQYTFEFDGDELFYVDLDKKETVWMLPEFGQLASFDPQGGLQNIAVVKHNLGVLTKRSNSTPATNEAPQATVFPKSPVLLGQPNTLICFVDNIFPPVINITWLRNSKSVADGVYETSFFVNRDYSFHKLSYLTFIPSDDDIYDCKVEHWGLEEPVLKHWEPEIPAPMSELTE
T1 chain 2: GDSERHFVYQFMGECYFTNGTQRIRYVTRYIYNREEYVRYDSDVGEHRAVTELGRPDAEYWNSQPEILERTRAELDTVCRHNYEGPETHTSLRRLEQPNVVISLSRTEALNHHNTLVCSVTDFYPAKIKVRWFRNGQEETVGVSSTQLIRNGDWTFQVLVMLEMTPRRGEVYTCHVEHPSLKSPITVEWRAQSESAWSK
As to the kind of experiment: biochemically tested I-Ab binding affinity (method not told).

B1: … (peptide)
peptide: YDMFNLLLMKPLGIE
modifications: not checked
Usually IC50 stands for the point on the concentration scale where inhibition reaches its midpoint. A higher IC50 goes with weaker potency in that assay. Regarding B1, the IC50 stood at 6.75 µM.

B2: … (peptide)
peptide: IIKYNRRLAKSIICE
modifications: not checked
As to B2, the IC50 is 8.39 µM.

B3: … (peptide)
peptide: GLVSQLSVLSSITNI
modifications: not checked
In turn, B3 registered an IC50 of 5.28 µM.

B4: … (peptide)
peptide: IEYAKLYVLSPILAE
modifications: not checked
In turn, B4 had an IC50 of 0.282 µM.
